Assay [1] concerns the target Vascular endothelial growth factor receptor 2 (Homo sapiens, UniProt P35968). The assay can be described thus: Inhibition of VEGFR2 (unknown origin) at 1 uM relative to control.
In assay [2] the target is Receptor-type tyrosine-protein kinase FLT3 (Homo sapiens, UniProt P36888). The assay can be described thus: Inhibition of FLT3 (unknown origin) at 1 uM relative to control.
In assay [3] the target is T1, Discoidin domain-containing receptor 2 (Homo sapiens) (UniProt Q16832).
T1 sequence (whole entry): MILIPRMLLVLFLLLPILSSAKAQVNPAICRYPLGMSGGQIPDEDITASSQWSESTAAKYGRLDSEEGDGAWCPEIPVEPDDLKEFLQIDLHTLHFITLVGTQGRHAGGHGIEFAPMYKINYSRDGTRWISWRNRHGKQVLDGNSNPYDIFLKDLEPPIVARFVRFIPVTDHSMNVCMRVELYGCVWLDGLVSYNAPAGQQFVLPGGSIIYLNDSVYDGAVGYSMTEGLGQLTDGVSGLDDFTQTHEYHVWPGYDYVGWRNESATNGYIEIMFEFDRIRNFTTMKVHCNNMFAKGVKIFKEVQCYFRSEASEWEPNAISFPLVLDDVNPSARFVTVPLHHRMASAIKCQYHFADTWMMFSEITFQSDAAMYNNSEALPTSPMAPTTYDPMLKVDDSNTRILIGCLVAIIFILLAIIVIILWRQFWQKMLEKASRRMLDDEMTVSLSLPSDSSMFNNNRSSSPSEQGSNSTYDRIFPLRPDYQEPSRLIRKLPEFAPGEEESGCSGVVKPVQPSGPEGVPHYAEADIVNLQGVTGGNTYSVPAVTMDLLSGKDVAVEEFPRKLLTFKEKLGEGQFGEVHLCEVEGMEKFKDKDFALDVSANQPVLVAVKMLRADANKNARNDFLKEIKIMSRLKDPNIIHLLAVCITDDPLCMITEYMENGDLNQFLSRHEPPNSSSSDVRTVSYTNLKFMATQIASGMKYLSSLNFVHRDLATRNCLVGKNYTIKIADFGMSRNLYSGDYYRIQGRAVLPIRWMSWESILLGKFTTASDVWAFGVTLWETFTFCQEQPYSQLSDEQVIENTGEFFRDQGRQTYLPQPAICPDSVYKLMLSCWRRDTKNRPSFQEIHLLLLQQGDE
The assay can be described thus: Inhibition of DDR2 (unknown origin) at 1 uM relative to control.

By UniProt entry, the sequences of proteins in these tests, tags left out. Where a name states a change or a piece, a line headed by the entry shows the natural chain unless it says otherwise.
UniProt P35968, whole entry: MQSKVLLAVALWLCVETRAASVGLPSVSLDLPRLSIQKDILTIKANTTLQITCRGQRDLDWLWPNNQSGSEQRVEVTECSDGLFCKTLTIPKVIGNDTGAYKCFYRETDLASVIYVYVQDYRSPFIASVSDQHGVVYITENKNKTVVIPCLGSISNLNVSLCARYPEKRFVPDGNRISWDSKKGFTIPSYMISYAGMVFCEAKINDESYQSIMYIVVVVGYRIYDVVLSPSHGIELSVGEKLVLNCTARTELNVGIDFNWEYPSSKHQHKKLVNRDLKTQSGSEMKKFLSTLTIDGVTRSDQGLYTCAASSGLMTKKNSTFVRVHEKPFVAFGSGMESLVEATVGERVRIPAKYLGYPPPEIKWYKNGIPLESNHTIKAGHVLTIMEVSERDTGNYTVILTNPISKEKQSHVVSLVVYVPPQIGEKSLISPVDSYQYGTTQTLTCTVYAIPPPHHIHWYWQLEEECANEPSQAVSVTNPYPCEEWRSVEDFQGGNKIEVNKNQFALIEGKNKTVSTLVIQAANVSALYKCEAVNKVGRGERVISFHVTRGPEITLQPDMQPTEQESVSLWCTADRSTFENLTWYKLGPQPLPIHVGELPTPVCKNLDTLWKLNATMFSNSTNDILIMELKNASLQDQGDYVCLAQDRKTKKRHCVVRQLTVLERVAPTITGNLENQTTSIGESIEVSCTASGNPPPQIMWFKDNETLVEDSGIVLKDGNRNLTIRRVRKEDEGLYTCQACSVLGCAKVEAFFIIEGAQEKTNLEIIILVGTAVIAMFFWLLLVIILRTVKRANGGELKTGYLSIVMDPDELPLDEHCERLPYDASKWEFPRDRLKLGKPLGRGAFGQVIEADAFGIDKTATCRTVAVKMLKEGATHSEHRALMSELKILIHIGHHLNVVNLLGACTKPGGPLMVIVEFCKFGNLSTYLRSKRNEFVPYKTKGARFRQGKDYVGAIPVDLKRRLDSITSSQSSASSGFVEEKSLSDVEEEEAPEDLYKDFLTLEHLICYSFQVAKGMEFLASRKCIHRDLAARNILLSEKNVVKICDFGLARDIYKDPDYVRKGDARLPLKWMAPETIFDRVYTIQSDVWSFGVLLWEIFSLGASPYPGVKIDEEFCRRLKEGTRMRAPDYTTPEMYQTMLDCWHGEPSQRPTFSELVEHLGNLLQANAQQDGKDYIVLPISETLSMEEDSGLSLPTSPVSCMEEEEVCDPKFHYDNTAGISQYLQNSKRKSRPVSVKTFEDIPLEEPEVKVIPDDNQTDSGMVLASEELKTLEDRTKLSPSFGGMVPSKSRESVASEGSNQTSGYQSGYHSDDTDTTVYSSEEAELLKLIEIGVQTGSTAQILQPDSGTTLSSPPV
UniProt P36888, whole entry: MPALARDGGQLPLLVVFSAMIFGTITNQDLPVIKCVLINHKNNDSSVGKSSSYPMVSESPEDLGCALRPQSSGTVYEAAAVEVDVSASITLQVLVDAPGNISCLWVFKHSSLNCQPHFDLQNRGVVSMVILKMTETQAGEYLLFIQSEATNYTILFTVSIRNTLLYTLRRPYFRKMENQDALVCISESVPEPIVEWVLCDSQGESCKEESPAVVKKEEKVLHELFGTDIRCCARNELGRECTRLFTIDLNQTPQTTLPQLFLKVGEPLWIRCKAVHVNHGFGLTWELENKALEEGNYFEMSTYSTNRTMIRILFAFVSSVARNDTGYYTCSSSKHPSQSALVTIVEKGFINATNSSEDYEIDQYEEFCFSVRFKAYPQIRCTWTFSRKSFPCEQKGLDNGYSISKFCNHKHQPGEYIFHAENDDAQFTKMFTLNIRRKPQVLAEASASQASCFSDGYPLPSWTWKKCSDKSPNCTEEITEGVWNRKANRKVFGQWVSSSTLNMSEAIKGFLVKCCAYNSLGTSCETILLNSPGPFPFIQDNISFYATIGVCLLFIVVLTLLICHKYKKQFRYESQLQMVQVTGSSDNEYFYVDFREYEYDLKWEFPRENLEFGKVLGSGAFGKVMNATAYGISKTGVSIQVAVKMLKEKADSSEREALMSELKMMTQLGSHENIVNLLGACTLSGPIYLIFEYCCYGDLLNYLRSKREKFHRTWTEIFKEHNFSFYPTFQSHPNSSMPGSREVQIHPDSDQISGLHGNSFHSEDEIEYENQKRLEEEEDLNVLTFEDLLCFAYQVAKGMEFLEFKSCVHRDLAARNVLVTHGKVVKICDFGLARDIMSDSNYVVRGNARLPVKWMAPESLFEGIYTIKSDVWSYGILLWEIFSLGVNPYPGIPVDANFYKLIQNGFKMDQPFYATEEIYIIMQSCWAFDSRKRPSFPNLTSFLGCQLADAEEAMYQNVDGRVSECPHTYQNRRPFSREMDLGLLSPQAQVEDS
UniProt P07333, whole entry: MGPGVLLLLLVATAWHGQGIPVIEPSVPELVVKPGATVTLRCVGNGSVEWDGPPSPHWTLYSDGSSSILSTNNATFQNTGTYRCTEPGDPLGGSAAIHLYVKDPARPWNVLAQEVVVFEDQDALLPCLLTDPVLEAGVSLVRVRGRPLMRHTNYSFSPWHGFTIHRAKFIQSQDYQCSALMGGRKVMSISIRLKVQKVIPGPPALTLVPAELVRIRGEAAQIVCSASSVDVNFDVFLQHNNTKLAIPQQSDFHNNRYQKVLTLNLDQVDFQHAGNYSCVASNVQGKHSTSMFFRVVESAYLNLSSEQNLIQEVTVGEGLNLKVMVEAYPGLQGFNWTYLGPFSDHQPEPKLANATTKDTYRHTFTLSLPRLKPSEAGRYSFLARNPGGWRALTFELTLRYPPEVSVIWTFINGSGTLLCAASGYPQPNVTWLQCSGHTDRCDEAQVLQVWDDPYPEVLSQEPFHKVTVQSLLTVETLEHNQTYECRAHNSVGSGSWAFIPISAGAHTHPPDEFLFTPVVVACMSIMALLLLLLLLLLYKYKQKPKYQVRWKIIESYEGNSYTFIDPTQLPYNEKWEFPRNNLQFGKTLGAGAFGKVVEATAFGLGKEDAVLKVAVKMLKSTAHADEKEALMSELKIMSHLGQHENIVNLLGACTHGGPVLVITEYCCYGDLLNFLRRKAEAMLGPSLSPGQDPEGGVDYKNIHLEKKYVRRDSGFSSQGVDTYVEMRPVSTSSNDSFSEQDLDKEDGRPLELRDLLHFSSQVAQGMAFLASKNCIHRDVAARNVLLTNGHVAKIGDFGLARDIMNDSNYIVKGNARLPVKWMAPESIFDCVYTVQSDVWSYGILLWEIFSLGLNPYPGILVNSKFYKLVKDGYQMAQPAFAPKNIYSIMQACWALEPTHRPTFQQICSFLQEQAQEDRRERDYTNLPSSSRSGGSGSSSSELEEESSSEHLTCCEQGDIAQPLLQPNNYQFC
UniProt Q08345: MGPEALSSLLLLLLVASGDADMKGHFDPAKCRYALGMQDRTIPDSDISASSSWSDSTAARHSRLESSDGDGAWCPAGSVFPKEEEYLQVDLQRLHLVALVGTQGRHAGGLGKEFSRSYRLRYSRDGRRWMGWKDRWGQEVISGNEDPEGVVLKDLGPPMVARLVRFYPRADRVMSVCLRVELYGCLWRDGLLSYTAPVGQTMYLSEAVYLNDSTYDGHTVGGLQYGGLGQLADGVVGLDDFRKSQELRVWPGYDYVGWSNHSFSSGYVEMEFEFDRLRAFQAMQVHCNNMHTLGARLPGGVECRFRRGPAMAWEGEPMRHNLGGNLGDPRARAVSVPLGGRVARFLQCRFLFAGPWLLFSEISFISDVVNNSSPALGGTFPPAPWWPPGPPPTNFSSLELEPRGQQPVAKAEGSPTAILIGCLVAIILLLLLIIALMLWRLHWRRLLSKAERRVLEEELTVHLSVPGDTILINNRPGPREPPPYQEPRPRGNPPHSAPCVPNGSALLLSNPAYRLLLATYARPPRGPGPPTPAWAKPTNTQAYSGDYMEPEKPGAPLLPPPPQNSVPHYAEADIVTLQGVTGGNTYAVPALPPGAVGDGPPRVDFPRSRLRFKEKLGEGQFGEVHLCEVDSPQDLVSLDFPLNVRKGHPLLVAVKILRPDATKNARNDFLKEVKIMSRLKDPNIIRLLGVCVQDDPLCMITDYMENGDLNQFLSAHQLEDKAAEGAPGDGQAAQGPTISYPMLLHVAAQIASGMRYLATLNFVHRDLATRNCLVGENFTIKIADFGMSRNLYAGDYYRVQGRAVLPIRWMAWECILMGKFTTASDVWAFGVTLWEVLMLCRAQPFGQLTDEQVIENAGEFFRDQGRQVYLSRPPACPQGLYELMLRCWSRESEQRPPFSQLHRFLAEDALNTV
UniProt P07949, whole entry: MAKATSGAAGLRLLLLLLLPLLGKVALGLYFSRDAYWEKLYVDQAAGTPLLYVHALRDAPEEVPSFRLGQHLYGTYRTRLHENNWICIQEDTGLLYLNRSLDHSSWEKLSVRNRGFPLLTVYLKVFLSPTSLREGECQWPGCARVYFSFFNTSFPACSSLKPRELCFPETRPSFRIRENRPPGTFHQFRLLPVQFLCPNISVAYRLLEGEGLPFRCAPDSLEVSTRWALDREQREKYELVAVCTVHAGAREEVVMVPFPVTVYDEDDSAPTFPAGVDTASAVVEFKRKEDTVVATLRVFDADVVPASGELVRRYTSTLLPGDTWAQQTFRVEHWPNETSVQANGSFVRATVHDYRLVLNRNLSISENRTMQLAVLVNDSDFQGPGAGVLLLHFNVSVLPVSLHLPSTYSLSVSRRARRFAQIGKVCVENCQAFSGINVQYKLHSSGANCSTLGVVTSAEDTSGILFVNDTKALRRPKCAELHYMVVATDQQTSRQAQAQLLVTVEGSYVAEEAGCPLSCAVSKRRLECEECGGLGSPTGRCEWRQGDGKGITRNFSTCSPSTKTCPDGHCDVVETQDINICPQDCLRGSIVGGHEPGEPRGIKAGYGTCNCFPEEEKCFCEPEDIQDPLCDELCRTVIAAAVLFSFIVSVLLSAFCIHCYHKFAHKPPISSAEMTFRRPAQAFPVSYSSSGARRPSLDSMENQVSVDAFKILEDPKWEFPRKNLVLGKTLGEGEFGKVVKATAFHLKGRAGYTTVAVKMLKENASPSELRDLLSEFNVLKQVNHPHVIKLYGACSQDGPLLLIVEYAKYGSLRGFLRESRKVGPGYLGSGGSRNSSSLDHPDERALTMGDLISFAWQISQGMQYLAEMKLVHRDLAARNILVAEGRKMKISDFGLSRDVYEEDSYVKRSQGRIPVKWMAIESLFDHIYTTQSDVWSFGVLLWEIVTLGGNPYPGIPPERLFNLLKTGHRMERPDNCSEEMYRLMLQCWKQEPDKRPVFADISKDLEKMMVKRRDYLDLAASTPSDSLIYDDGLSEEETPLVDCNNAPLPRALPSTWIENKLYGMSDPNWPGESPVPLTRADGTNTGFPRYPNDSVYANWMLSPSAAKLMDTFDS
UniProt P10721, whole entry: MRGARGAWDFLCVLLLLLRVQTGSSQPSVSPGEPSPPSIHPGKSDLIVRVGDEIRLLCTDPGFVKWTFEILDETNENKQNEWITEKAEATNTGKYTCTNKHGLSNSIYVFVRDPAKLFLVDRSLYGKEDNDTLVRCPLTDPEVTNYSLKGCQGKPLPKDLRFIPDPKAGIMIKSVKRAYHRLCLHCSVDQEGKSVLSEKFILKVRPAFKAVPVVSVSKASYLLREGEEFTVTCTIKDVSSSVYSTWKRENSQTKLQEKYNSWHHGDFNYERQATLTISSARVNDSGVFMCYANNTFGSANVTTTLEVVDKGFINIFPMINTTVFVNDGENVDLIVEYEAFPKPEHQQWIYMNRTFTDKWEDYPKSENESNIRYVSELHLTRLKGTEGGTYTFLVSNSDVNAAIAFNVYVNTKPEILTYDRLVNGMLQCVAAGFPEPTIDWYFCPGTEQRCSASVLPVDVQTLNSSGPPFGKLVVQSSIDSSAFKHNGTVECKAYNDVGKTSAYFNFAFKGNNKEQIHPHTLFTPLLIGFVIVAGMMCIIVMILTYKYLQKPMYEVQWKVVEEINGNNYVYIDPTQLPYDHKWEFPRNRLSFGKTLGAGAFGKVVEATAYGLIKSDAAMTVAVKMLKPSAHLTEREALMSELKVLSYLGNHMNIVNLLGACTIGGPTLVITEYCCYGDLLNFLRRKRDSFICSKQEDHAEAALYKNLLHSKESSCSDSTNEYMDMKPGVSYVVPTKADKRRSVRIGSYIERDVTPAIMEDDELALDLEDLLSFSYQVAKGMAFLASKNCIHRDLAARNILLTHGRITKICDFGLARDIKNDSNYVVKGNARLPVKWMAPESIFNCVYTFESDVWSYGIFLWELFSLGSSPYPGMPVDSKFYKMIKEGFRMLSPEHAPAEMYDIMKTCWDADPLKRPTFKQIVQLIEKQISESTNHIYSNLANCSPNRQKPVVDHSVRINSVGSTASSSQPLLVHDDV

For assay [4], the target named is Macrophage colony-stimulating factor 1 receptor (Homo sapiens) (UniProt P07333). Briefly: Inhibition of CSF1R (unknown origin) at 1 uM relative to control.
In assay [5] the target is Epithelial discoidin domain-containing receptor 1 (Homo sapiens) (UniProt Q08345). Briefly: Inhibition of DDR1 (unknown origin) at 1 uM relative to control.
For assay [6], the target named is Proto-oncogene tyrosine-protein kinase receptor Ret (Homo sapiens, UniProt P07949). The assay can be described thus: Inhibition of RET (unknown origin) at 1 uM relative to control.
Assay [7] addresses Mast/stem cell growth factor receptor Kit (Homo sapiens) (UniProt P10721). Briefly: Inhibition of KIT (unknown origin) at 1 uM relative to control.

The record followed here is ChEMBL document CHEMBL5385866, “Switch type I to type II TRK inhibitors for combating clinical resistance induced by xDFG mutation for cancer therapy” (Eur J Med Chem, 2023).

As to `CN1CCN(Cc2ccc(NC(=O)[C@@H]3CCN(c4ccc5ncc(-c6ccccn6)n5n4)C3)cc2C(F)(F)F)CC1`, the inhibition – broadly, the share of the control response that was lost under treatment – is over 90% in assay [1]; over 90% in assay [2]; 70% in assay [3]; 70% in assay [4]; 70% in assay [5]; over 90% in assay [6]. In addition, the inhibition in assay [7] is 70%.
